From patent US20050163773A1, “Methods and pharmaceutical compositions for dopaminergic modulation of t-cell adhesion and activity” (priority 2001, published 2005)

Assays:
IL-10 secretion = IL-10 secretion by human peripheral T-cells (sandwich ELISA); format: cell-based
From the text: The results are expressed as pg/ml IL-10. […] Immunostaining is with intracellular anti-IL-10 FITC conjugated (FL-1) and anti-CD4 PE conjugated (FL-2) antibodies, as described in Materials and Methods hereinbelow.
(§1) The results are expressed as pg/mi.
(§2) The results are expressed as pg/ml.
as §2, §2

TNFα secretion = TNFα secretion by human peripheral T-cells (sandwich ELISA); format: cell-based
From the text: as §2, §1, §2, §2, §2

SMILES: CCCN1CCC[C@@H]2Cc3n[nH]cc3C[C@H]21 [Quinpirole]
- induction of IL-10 secretion by receptor-specific Dopamine agonists (IL-10 secretion): induced by the D2
- induction of TNFα secretion by receptor-specific Dopamine agonists (TNFα secretion): induced by D1 and D2
